Common to all, as to type: cell-based
The subject of test [1] is human lung cancer cell NCI-H460. In words: MTT proliferation assay, NCI-H460. The following applies: NCI-H460, 96 h, read-out: IC50 (nM), inhibition of proliferation of NCI-H460. As for the experimental part: (§1) The cells were seeded into 96-well cell culture plate with a density of 2000/4000 cells per well and incubated overnight in a 5% CO2 incubator at 37° C. […] 5 L diluent of each concentration was added to 120 μL of medium (25 times diluted) and mixed by shaking. The overnight cell plates were taken and the culture medium was removed, 195 μL of fresh medium was added to each well, and 5 μL of diluted medium containing the corresponding concentration of the test compound was added respectively (the final concentration of DMSO is 1%), and the culture plate was then placed in a 5% CO2 incubator at 37° C. for 4 days. After removing the original solution, 100 μL of fresh serum-free DMEM medium containing MTT (0.5 mg/mL) was added to each well, the culture was continued. […] Cell viability (%)=(ODcompound−ODbackground)/(ODDMSO−ODbackground)×100. GraphPad Prism 6.0 was used to analyze the data. The inhibitory activity of compounds on cell proliferation was plotted based on cell viability and the logarithm of compound concentration.
(Tetrazolium dyes change colour on reduction, which living cells bring about.)

For test [2], the system named is human prostate cancer cell DU145. In words: MTT proliferation assay, DU145. To be noted: DU-145, 96 h, read-out: IC50 (nM), inhibition of proliferation of DU145. As for the experimental part: The cells were digested by trypsinase and centrifuged at 800 rpm for 5 minutes, the supernatant was discarded, and the residual was resuspended with fresh medium (DMEM medium+10% FBS+non-essential amino acid) and counted. The cells were seeded into 96-well cell culture plate with a density of 2000 cells per well and incubated overnight in a 5% CO2 incubator at 37° C. […] 5 μL of each concentration was added to 120 μL of medium (25 times diluted) and mixed by shaking. The overnight cell plates were taken and the culture medium was removed, 195 μL of fresh medium was added to each well, and 5 μL of diluted medium containing the corresponding concentration of the test compound was added respectively (the final concentrations of compounds are shown in Table 3, the final concentration of DMSO is 1%), and the culture plate was then placed in a 5% CO2 incubator at 37° C. for 4 days. After removing the original solution, 100 μL of fresh serum-free DMEM medium containing MTT (0.5 mg/mL) was added to each well, the culture was continued. […] GraphPad Prism 6.0 was used to analyze the data. The inhibitory activity of compounds on cell proliferation was plotted based on cell viability and the logarithm of compound concentration. Cell viability %=(ODcompound−ODbackground)/(ODDMSO−ODbackground)×100.

Test [3] concerns human colon cancer cell LoVo. The test is described as follows: MTT proliferation assay, LoVo. To be noted: 96 h, read-out: IC50 (nM), inhibition of proliferation of LoVo. The protocol:
as §1, with “5 μL” for “5 L”, “viability (%)=(ODcompound−ODbackground)/(ODDMSO-ODbackground)×100.” for “viability (%)=(ODcompound−ODbackground)/(ODDMSO−ODbackground)×100.”

Molecules are shown by their SMILES.

Turning to `C[C@@H]1COCCN1c1cc(-c2ccnn2C)c2ccnc(-c3ccn[nH]3)c2n1` [BAY-1895344, reference compound], the IC50 was found to be 21.5 nM in test [1], 33.9 nM in test [2] and 26 nM in test [3].

The record behind these values is patent publication US12479848B2, “Substituted fused heteroaromatic bicyclic compounds as kinase inhibitors and the use thereof” (IMPACT THERAPEUTICS (SHANGHAI), INC, priority 2019, dated 2025).
